Assay results from US20210246208A1, “COMBINED INHIBITION OF PD-1/PD-L1, TGFB AND DNA-PK FOR THE TREATMENT OF CANCER” (MERCK PATENT GMBH, priority 2018, published 2021).

Assays:
[1] = test system: EMT, fibrosis and VEGF pathway gene signatures in 4T1 tumor tissue; assay: RNAseq gene signatures of 4T1 tumor tissue (Example 3G); format: in vivo, BALB/c mice; conditions: tumors harvested day 6
Method: Tumor tissues were harvested at Day 6 for RNAseq analysis. Gene expression signatures associated with (A) EMT, (B) fibrosis, and (C) VEGF pathway signatures are presented as box plots. Signature scores are defined as the mean log2 (fold change) among all genes in the signature.
RNAseq was performed with Qiagen targeted RNAseq panels consisting of 1278 total genes. EMT and fibrosis gene signatures were based on Qiagen gene lists and the VEGF pathway signature was based on the Biocarta VEGF pathway in Broad's Canonical Pathways. For these gene sets, signature scores are defined as the mean log2 (fold-change) among all genes in each gene signature. These were calculated by adding a pseudocount of 0.5 TPM to all genes and samples, determining the log2 (TPM), then subtracting the median log 2-TPM for each gene across all samples from the log2-TPM for each gene. Signature scores for gene sets are shown as boxplots.

4T1 mammary tumors = assay: 4T1 mammary tumor model, tumor volume and survival (Example 3A); conditions: radiation 8 Gy day 0-3, M3814 150 mg/kg p.o. q.d. day 0-14

anti-PD-L1/TGFβ Trap: full human IgG1 monoclonal antibody against human PD-L1 fused to the extracellular domain of human TGFβ receptor II (SEQ ID NO: 10 and 9)
EMT signature score [1]: significantly reduced the EMT signature score relative to isotype control
fibrosis signature score [1]: did not have a significant decrease in the fibrosis signature
tumor volume (4T1 mammary tumors; concurrent dosing, day 10, Trap 492 μg day 0, 2, 4): significantly decreased tumor volume relative to isotype control
tumor volume (4T1 mammary tumors; sequential dosing, day 11, Trap 492 μg day 4, 6, 8): decreased tumor volume relative to isotype control
